According to BindingDB's records for 28501648:

Tests used:
Acetylcholinesterase = Acetylcholinesterase (Electrophorus electricus, UniProt O42275); experiment: In Vitro AChE/BChE Inhibition Assay; conditions: pH 7.4
[1] = biological target: Carboxylic ester hydrolase (Equus caballus, UniProt Q9N1N9); experiment: In Vitro AChE/BChE Inhibition Assay; conditions: pH 7.4

SMILES	IC50 (Acetylcholinesterase) [µM]	IC50 [1] [µM]
O=C(NCCCCNc1c2c(nc3ccccc13)CCCC2)c1cccc(F)c1	0.0976	0.00102
O=C(NCCNc1c2c(nc3ccccc13)CCCC2)c1cccc(F)c1	1.6	0.00476
O=C(NCCCCNc1c2c(nc3ccccc13)CCCC2)c1ccccc1F	0.0414	0.00139
